# Results: PubChem BioAssay (NCI)
# The list shows a part of the results, in another mix than the full data. Some structures show a salt or complex split into parts, the way the source records it. Some structures have more than one record in an assay (separate samples or runs), and their calls can disagree. Activity calls are given as the source filed them. Cut-off read from the data, not from the text of the source: active = growth inhibition above about 70%; inactive = the rest.
# Assay: NCI Yeast Anticancer Drug Screen. Data for the rad14 strain (AID 159);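 note: 0% = growth of vehicle-treated control cultures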
# Details: S. cerevisiae rad14 strain growth inhibition, active compounds read high
# Method: Growth inhibition of yeast strains with defined genetic alterations is measured as a screen for potential anti-cancer activity. Selected strains with alterations in DNA damage repair or cell cycle control were exposed to compounds and growth inhibition was measured relative to vehicle treated controls. The strain used in this assay is rad14
SMILES,growth inhibition (at 1.2 µM),growth inhibition (at 3.7 µM),growth inhibition (at 11.0 µM),growth inhibition (at 33.0 µM),growth inhibition (at 100.0 µM)
[Au+].[Au+].c1ccc([PH+](c2ccccc2)c2ccccc2)cc1.c1ccc([PH+](c2ccccc2)c2ccccc2)cc1.n1n[n-]c(-c2nnn[n-]2)n1,inactive: 1%,inactive: 24%,active: 95%,active: 99%,active: 98%
O=[N+]([O-])C(F)(COCC(O)CO)[N+](=O)[O-] (stereo not given),inactive: -5%,inactive: -10%,inactive: 15%,active: 72%,active: 92%
[Au].[C-]#N.[C-]#N,inactive: -21%,inactive: -19%,inactive: -9%,inactive: -5%,inactive: -14%
Cc1ccc2ccc3ccc4ccccc4c3c2c1.O=C1c2cc([N+](=O)[O-])ccc2-c2c1cc([N+](=O)[O-])cc2[N+](=O)[O-],inactive: 2%,inactive: 6%,inactive: 12%,inactive: 22%,inactive: 28%
[Au+].[N-]=[N+]=N.c1ccc([PH+](c2ccccc2)c2ccccc2)cc1,inactive: 6%,active: 99%,active: 98%,active: 96%,active: 86%
Cc1c2ccccc2cc2ccccc12.O=[N+]([O-])c1cc([N+](=O)[O-])c(O)c([N+](=O)[O-])c1,inactive: 0%,inactive: 7%,inactive: 17%,active: 74%,active: 97%
Cc1cc2ccccc2cc1C.O=[N+]([O-])c1cc([N+](=O)[O-])cc([N+](=O)[O-])c1,inactive: 0%,inactive: 0%,inactive: 4%,inactive: 19%,active: 89%
Nc1ccccc1.O=[N+]([O-])c1cc([N+](=O)[O-])cc([N+](=O)[O-])c1,inactive: 2%,inactive: 11%,inactive: 39%,active: 99%,active: 99%
